Laboratory results reported in patent US4681091A, “Combination modality cancer therapy” (priority 1985, dated 1987).
Like-named read-outs stand apart in the source and are kept apart here.

Tested on: bacterial cells (salmonella typhimurium TM677)
Settings: 200 µM

## dichlorobis (ethylenediamine) rhodium (III) [Compound 3]
Salmonella typhimurium tm677, 20 min
  N/No (toxicity): 1.12 × 10°
Salmonella typhimurium tm677, 40 min
  N/No (toxicity): 1.23 × 10°
